Measured values reported in paper PMC3971408, “Inhibition of triosephosphate isomerase by phosphoenolpyruvate in the feedback-regulation of glycolysis” (Open Biology, 2014).

Substrate: O=CC(O)COP(=O)(O)O
Test: purified protein
Conditions: catalytic pocket

| Protein | Km (direct contact with residue […]) [µM] | Km [µM] |
| --- | --- | --- |
| human TPIIle170Thr (Homo sapiens; I171T) (protein) APSRKFFVGGNWKMNGRKQSLGELIGTLNAAKVPADTEVVCAPPTAYIDFARQKLDPKIAVAAQNCYKVTNGAFTGEISPGMIKDCGATWVVLGHSERRHVFGESDELIGQKVAHALAEGLGVIACIGEKLDEREAGITEKVVFEQTKVIADNVKDWSKVVLAYEPVWATGTGKTATPQQAQEVHEKLRGWLKSNVSDAVAQSTRIIYGGSVTGATCKELASQPDVDGFLVGGASLKPEFVDIINAKQ | 303 |  |
| human triosephosphate isomerase (TPI) (Homo sapiens) (protein) APSRKFFVGGNWKMNGRKQSLGELIGTLNAAKVPADTEVVCAPPTAYIDFARQKLDPKIAVAAQNCYKVTNGAFTGEISPGMIKDCGATWVVLGHSERRHVFGESDELIGQKVAHALAEGLGVIACIGEKLDEREAGITEKVVFEQTKVIADNVKDWSKVVLAYEPVWAIGTGKTATPQQAQEVHEKLRGWLKSNVSDAVAQSTRIIYGGSVTGATCKELASQPDVDGFLVGGASLKPEFVDIINAKQ |  | 1373 |
| human TPIIle170Val (Homo sapiens; I171V) (protein) APSRKFFVGGNWKMNGRKQSLGELIGTLNAAKVPADTEVVCAPPTAYIDFARQKLDPKIAVAAQNCYKVTNGAFTGEISPGMIKDCGATWVVLGHSERRHVFGESDELIGQKVAHALAEGLGVIACIGEKLDEREAGITEKVVFEQTKVIADNVKDWSKVVLAYEPVWAVGTGKTATPQQAQEVHEKLRGWLKSNVSDAVAQSTRIIYGGSVTGATCKELASQPDVDGFLVGGASLKPEFVDIINAKQ |  | 687 |
